Ratio data for one compound are collected here from ChEMBL document CHEMBL5236611, “Development of SOS1 Inhibitor-Based Degraders to Target KRAS-Mutant Colorectal Cancer” (J Med Chem, 2022).

The chains behind the UniProt entries cited, without tags or fusion partners. Where a name states a change or a piece, a line headed by the entry shows the natural chain unless it says otherwise.
UniProt Q96SW2: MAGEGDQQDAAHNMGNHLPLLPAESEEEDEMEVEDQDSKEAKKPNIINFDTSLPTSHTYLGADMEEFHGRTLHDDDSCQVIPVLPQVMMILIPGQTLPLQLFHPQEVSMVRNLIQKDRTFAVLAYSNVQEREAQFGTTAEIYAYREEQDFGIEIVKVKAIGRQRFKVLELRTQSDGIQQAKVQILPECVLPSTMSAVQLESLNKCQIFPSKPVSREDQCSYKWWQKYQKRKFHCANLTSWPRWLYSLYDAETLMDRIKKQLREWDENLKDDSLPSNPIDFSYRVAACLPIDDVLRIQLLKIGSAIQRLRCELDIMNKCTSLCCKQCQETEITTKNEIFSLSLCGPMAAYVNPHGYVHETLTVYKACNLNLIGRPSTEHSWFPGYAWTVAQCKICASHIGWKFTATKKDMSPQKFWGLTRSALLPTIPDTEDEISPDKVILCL

Common to all, as to type: cell-based
In assay [1] the target is T1, Protein cereblon/Son of sevenless homolog 1 (Homo sapiens, UniProt Q07889+Q96SW2). Nature of the assay: PROTAC activity at SOS1/Cereblon in human SW620 cells assessed as ratio of protein degradation normalized to DMSO at 0.1 uM measured after 6 hrs by immunoblotting analysis. The gist of the method: (§1)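 SW620 cells in McCoy's 5A/10% FBS, 37 °C, 5% CO2, treated 6 h. Lysed in RIPA with protease/phosphatase inhibitors, ~40 μg protein per lane on SDS-PAGE and immunoblotted. SOS1 band normalized to DMSO control (1.0 = no degradation).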
Background: Immunoblotting shows a protein as a band on a membrane.

For assay [2], the target named is T1, Protein cereblon/Son of sevenless homolog 1. As to the kind of experiment: PROTAC activity at SOS1/Cereblon in human SW620 cells assessed as ratio of protein degradation normalized to DMSO at 1 uM measured after 6 hrs by immunoblotting analysis. Summed up:
as §1

Assay [3] has the same target. Nature of the assay: PROTAC activity at SOS1/Cereblon in human SW620 cells assessed as ratio of protein degradation normalized to DMSO at 10 uM measured after 6 hrs by immunoblotting analysis. The gist of the method:
as §1

Regarding `COc1cc2c(N[C@H](C)c3cc(N)cc(C(F)(F)F)c3)nc(C)nc2cc1OCC(=O)Nc1cccc2c1CN(C1CCC(=O)NC1=O)C2=O` (stereo partly drawn), the values for the Ratio in assay [1], in assay [2] and in assay [3] were 1.07, 0.365 and 0.36, respectively.
